PABP FP inh = PABP-poly(A) binding inhibition; P11940; PABP-poly(A) RNA binding, fluorescence polarization; calls only at 35 µM; 290,000 compounds, 1% hits; AID 2014;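 also: calls also rest on retests at 20 µM and on dose response follow-up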
Yeast UUG start = modulators of start codon recognition fidelity in yeast; AID 602363; hit rate 0.13% among 350,000; activity score, % at 18.7 µM; S. cerevisiae UUG-firefly luciferase reporter, luminescence/redox ratio;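 active = replicate mean at a twofold rise or more, about +100% in these data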;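 note: firefly luciferase made from a UUG start codon reports start codon fidelity; reporter light over untreated wells divided by growth signal over untreated wells; some hits fall short of that in this replicate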
eIF4H FP inh = inhibitors of RNA binding by human eIF4H | Q15056 | eIF4H fluorescence polarization binding assay | inhibition, % at 35 µM | 290,000 compounds, 0.94% hits | AID 2012;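 also: calls also rest on retests at 20 µM and on dose response follow-up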
PABP1 MLLE inh = blocks PAM2 peptide binding to the PABP1 MLLE domain | GST-MLLE / FITC-PAM2 fluorescence polarization | inhibition, % at 20 µM | 360,000 compounds, 0.36% hits | AID 588489; in the data active = inhibition above about 35%, passing the limit was not always enough
DSG3 Ab inh = blocks pemphigus antibody binding to human desmoglein-3; DSG3-coupled beads, scFv-anti-DSG3-GFP binding, flow cytometry; hits give low values; 310,000 compounds, 0.48% hits; binding (percent of control), % at 10 µM;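 active = binding more than 3 SD below its plate's average and above zero; inconclusive = below that plate limit but binding exactly zero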;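 also: hits lower antibody fragment binding to DSG3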
Hits are given with their value; n = inactive; u = inconclusive; x = no result given; + = active, no number. Only some compounds are listed: those with a hit (about 1.5% of all), similar ones and a draw of the others. Unless noted, no rule for the calls is given here.

SMILES	PABP FP inh	Yeast UUG start	eIF4H FP inh	PABP1 MLLE inh	DSG3 Ab inh
C[C@@H]1CN([C@@H](C)CO)C(=O)c2cc(C#Cc3cccnc3)cnc2O[C@@H]1CN(C)Cc1ccccc1	x	n	x	x	x
CC1CC(C)(C)OC(C[N+]2(C)CCCCC2)O1 (configuration not stated)	+	x	0.6	n	x
O=C(Nc1nc2ccsc2c(=O)s1)c1ccco1	n	n	64	n	n
Cc1csc2c(=O)sc(NC(=O)c3ccco3)nc12	n	n	n	n	n
C[C@@H]1CN([C@H](C)CO)S(=O)(=O)c2ccc(C#CC3CC3)cc2O[C@H]1CN(C)Cc1ccncc1	x	n	x	x	x
N#Cc1ccc(OCC(=O)Nc2ccccc2NS(=O)(=O)c2cccs2)cc1	+	n	53	n	n
CC(C)NC(=O)N(C)C[C@H]1Oc2ccc(NC(=O)Cc3ccccc3)cc2C(=O)N([C@@H](C)CO)C[C@@H]1C	x	n	x	x	x
C[C@@H]1CN([C@@H](C)CO)C(=O)c2cc(NS(=O)(=O)c3cn(C)cn3)ccc2O[C@@H]1CN(C)C(=O)Nc1ccc(C(F)(F)F)cc1	x	n	x	x	x
Cc1noc(C)c1S(=O)(=O)Nc1ccc2c(c1)C(=O)N([C@@H](C)CO)C[C@H](C)[C@@H](CN(C)Cc1ccncc1)O2	x	n	x	x	x
Cc1ccc(NC2=CC(=O)CC(c3ccco3)C2)c(N)c1 (configuration not stated)	+	n	104	n	n
Nc1ccccc1NC1=CC(=O)CC(c2ccco2)C1 (configuration not stated)	+	n	91	n	n
Nc1ccccc1NC1=CC(=O)CC(c2ccccc2)C1 (configuration not stated)	n	x	n	x	x
O=C1C=C(NNC(=O)c2cccnc2)CC(c2ccco2)C1 (configuration not stated)	n	x	u	45	n
C[C@H](CO)N1C[C@H](C)[C@H](CN(C)C(=O)Nc2ccccc2)Oc2ncc(C#CC3CC3)cc2C1=O	x	n	x	x	x
CCOc1ccc(NC(=O)c2ccc3c(c2)S(=O)(=O)N=C2CCCCCN23)cc1	x	n	x	n	78
O=C(Nc1ccc(F)cc1)c1ccc2c(c1)S(=O)(=O)N=C1CCCCCN12	x	n	x	n	x
Cc1ccc(NC(=O)CCSc2nnc(-c3ccco3)o2)cc1	n	n	n	n	n
CN(C)c1ccc(NC(=O)CSc2nnc(-c3ccco3)c(-c3ccco3)n2)cc1	+	n	93	n	n
Cc1ccc(SCC(=O)Nc2ccc(-c3nnc(-c4ccco4)o3)cc2)cc1	+	n	58	n	n
Cc1ccc(NC(=O)CSc2nnc(-c3ccco3)c(-c3ccco3)n2)cc1	+	n	100	n	n
O=C(CSc1nnc(-c2ccco2)c(-c2ccco2)n1)Nc1ccccc1	+	n	96	n	n
O=C(Nc1cccc(F)c1)N1CCCCN2[C@H](CO)[C@H](c3ccc(C#CC4CC4)cc3)[C@H]2C1	x	n	x	x	x
C[C@@H]1CN([C@@H](C)CO)S(=O)(=O)c2ccc(C#C[C@@H](C)O)cc2O[C@@H]1CN(C)C(=O)C1CCC1	x	n	x	x	x
C[C@@H]1CCCCO[C@H](CN(C)Cc2ccc(C(=O)O)cc2)[C@H](C)CN([C@@H](C)CO)C(=O)c2cc(NC(=O)NC3CCCCC3)ccc2O1	x	n	x	x	x
NC(=O)NC(=O)COC(=O)c1ccc(Cl)c(S(=O)(=O)N(Cc2ccccc2)c2ccc(Cl)cc2)c1	+	x	n	n	n
SMILES	PABP FP inh	Yeast UUG start	eIF4H FP inh	PABP1 MLLE inh	DSG3 Ab inh
NC(=O)COC(=O)c1ccc(Cl)c(S(=O)(=O)N(Cc2ccccc2)c2ccc(Cl)cc2)c1	n	x	n	n	n
CC(Nc1cc(N2CCN(S(=O)(=O)N(C)C)CC2)ccc1[N+](=O)[O-])c1ccccc1 (configuration not stated)	+	x	77	n	n
COc1ccc(CN(C)C[C@H]2OCCCC[C@H](C)Oc3ccc(NC(=O)Nc4ccc(OC)cc4)cc3C(=O)N([C@@H](C)CO)C[C@@H]2C)cc1	x	n	x	x	x
CCOC(=O)c1c(C)nc2sc(C(=O)Nc3ccccc3)c(N)c2c1-c1ccc(OC)cc1	n	n	n	n	88
CCOC(=O)c1c(C)nc2sc(C(N)=O)c(N)c2c1-c1ccccc1	n	n	n	n	n
O=C(c1ccco1)N(CCC(c1ccccc1)c1ccco1)Cc1ccco1 (configuration not stated)	n	n	68	n	x
Cc1ccc(C(CCN(Cc2ccccc2)C(=O)c2ccco2)c2ccco2)cc1 (configuration not stated)	n	x	n	n	n
CN1C[C@@H]2[C@H](c3ccccc31)[C@H](CO)N2Cc1ccccc1	x	n	x	x	x

Source: PubChem BioAssay (several laboratories)
